The nature of this data set: surface iodination, anti-CD3 epsilon co-immunoprecipitation, SDS-PAGE. The settings on record: glycan lost; control: J76 (wild-type CD3 gamma).

Regarding CD3 gamma: N30Q, the oligomerisation result is listed as “no change”.
In the case of CD3 gamma: N70Q, the oligomerisation result was “no change”.
